In data set [1] the target is T1, Recombinant Rhinovirus 3C protease serotype 14 (Human rhinovirus 14, UniProt P03303).
T1 construct: Recombinant Rhinovirus 3C proteases from serotypes 14, 16, and 2; made in house
Format: biochemical. The settings on record: RVP serotype-14; progress curves, enzyme start experiments.

Protein sequences, listed by entry. Tags and fused reporters are not part of them. Residues count along the entry.
UniProt P03303, 1538-1719: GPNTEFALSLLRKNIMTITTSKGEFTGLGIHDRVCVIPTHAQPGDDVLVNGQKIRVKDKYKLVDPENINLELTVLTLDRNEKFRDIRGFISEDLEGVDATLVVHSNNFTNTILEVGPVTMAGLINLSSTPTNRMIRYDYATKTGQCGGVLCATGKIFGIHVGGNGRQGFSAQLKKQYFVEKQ

For another data set, the system named is HI-HeLa cells. Description: Cytotoxicity in mock-infected HI-HeLa cells (XTT, antirhinoviral assay). Format: cell-based. How it is done: In the Cell Protection Assay, the ability of compounds to protect cells against HRV infection was measured by the XTT dye reduction method. This method is described in Weislow, O. S., Kiser, R., Fine, D. L., Bader, J., Shoemaker, R. H., Boyd, M. R., J. Natl. Cancer Inst. 1989, 81, 577-586, the disclosure of which is incorporated herein by reference.
HI-HeLa cells were infected with HRV-14 at a multiplicity of infection (m.o.i.) of 0.13 (virus particles/cell) or mock-infected with medium only. Infected or mock-infected cells were resuspended at 8×10^5 cells per mL and incubated with appropriate concentrations of compounds of formula I. Two days later, XTT/PMS was added to test plates, and the amount of formazan produced was quantified spectrophotometrically at 450/650 nm. […] The therapeutic index (TI) was calculated by dividing the CC50 by the EC50.
HRV stocks were propagated, and viral assays were performed in HI-HeLa cells (ATCC). Cells were grown in Minimal Essential Medium, available from Life Technologies, with 10% fetal bovine serum.

We go through one substance from patent US20040072907A1, “Antipicornaviral compounds, compositions containing them, and methods for their use” (priority 1997, published 2004).

Where only a bound is given, the exact number is not on record here.

For “Ethyl-3-(CBZ-L-LeuΨ[COCH2]-D/L-Phe-L-Gln)-E-Propenoate [Compound 1 + 9 (˜1:1)]”, the kobs/I in data set [1] is 5,100 M^−1sec^−1. For the same substance, the CC50 in the data set with HI-HeLa cells (line for HRV serotype 2), in the data set with HI-HeLa cells (line for HRV serotype 10), in the data set with HI-HeLa cells (line for HRV serotype 16) and in the data set with HI-HeLa cells (line for HRV serotype 89) was greater than 320 µM each time.
